Source: ChEMBL document CHEMBL4004825 (J Med Chem, 2017)

Experiments:
[1] = target: T1, Tyrosine-protein kinase ITK/TSK (Homo sapiens, UniProt Q08881); experiment: Inhibition of full length recombinant human GST-tagged cytoplasmic ITK expressed in baculovirus expression system by KT236 probe based TR-FRET assay
T1 sequence (Q08881 whole entry): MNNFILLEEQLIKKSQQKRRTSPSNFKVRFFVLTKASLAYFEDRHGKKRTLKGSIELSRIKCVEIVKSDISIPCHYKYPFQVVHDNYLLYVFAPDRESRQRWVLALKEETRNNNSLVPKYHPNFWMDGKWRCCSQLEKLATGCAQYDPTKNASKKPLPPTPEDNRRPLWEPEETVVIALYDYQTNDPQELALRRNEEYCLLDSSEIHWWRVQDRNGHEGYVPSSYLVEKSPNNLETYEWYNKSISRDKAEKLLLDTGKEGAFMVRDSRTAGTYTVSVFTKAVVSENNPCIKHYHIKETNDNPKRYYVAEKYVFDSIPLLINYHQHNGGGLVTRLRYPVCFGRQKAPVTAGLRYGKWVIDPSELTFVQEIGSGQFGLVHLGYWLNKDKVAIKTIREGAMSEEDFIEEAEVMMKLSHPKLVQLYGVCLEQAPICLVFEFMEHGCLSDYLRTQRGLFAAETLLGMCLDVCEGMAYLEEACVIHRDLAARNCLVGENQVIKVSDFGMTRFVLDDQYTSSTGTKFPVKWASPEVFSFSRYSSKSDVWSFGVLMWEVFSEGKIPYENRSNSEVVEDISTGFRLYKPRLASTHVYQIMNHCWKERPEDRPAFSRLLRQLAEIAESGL

[2] = target: T2, Tyrosine-protein kinase JAK3 (Homo sapiens, UniProt P52333); experiment: Inhibition of recombinant human GST-tagged cytoplasmic JAK3 catalytic domain (781 to 1124 residues) expressed in baculovirus expression system using FITC-KGGEEEEYFELVKK as substrate in presence of 4 uM ATP by microfluidic assay
T2 sequence (P52333 whole entry): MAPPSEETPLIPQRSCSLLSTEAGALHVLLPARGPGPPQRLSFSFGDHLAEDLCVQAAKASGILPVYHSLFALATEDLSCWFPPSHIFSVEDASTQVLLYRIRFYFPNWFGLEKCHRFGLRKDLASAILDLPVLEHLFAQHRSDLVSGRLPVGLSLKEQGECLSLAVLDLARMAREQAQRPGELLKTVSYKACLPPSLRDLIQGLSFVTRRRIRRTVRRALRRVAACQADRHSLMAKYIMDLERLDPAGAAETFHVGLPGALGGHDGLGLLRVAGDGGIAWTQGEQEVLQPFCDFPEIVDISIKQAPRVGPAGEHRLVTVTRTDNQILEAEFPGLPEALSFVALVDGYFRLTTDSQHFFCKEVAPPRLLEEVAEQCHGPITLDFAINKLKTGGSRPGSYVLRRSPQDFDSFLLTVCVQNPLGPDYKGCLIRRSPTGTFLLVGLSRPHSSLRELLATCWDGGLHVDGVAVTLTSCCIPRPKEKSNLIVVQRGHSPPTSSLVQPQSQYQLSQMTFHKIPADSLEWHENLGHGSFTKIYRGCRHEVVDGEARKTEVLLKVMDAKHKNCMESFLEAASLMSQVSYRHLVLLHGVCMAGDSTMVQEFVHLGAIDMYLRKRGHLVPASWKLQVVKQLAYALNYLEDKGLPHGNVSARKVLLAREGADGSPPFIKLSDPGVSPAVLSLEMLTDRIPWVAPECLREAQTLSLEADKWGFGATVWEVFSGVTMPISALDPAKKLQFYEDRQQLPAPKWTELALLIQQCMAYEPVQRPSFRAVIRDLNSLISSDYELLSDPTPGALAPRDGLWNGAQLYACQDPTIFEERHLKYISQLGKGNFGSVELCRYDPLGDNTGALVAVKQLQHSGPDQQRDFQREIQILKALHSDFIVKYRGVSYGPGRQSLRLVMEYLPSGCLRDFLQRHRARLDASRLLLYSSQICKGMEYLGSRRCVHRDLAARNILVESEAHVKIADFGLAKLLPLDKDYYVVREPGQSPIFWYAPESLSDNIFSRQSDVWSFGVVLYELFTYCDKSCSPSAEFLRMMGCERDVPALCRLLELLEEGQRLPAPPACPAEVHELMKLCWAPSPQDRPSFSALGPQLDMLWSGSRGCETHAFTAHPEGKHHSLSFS

[3] = target: T2, Tyrosine-protein kinase JAK3; experiment: Inhibition of recombinant human GST-tagged cytoplasmic JAK3 catalytic domain (781 to 1124 residues) expressed in baculovirus expression system using FITC-KGGEEEEYFELVKK as substrate in presence of 1 mM ATP by microfluidic assay
[4] = target: T2, Tyrosine-protein kinase JAK3; experiment: Inhibition of JAK3 in human PBMC assessed as inhibition of IL-15 induced STAT5 phosphorylation preincubated for 75 mins followed by IL-15 addition and measured after 15 mins by Alexa Fluor 647 staining based flow cytometry
[5] = target: T2, Tyrosine-protein kinase JAK3; experiment: Inhibition of JAK3 in human whole blood assessed as inhibition of IL-15 induced STAT5 phosphorylation preincubated for 45 mins followed by IL-15 addition and measured after 15 mins by Alexa Fluor 647 staining based flow cytometric analysis

C=CC(=O)N1C[C@H](Nc2ncnc3[nH]ccc23)CC[C@@H]1C [RITLECITINIB]
Ki [1]: 26.9 nM

C=CC(=O)N1CC[C@H]2CCN(c3ncnc4[nH]ccc34)[C@H]2C1
IC50 [2]: 0.4 nM | IC50 [3]: 47 nM | IC50 [4]: 116 nM | IC50 [5]: 399 nM
